Assay results reported in patent US20020031818A1, “Modification of Mdm2 activity” (priority 2000, published 2002).

Target: T1, p53 (Homo sapiens, UniProt P04637)
T1 construct: HA; expressed in transfected cells; host or cells: Mdm2/p53 double null cells
Assay: p53 level in p53/Mdm2 double null cells co-transfected with p53 and Mdm2 forms
Format: cell-based

amount of expression construct required to achieve the same decrease in the level of p53: 0.5 mg
Substance: K1: Mdm2 mutant with lysine 446 substituted for arginine
